In patent US11998616B2, “Nanoparticles for crossing the blood brain barrier and methods of treatment using the same” (California Institute of Technology, priority 2018, dated 2024):

Columns and labels:
[1] = test system: HER2-positive BT474-Gluc breast cancer brain metastases; assay: Anti-HER2 therapy on BT474-Gluc brain metastases established by IC injection; format: in vivo, Rag2−/−; Il2rg−/− mice; conditions: IC-established tumors, 5 mg/kg twice weekly intravenous
Procedure: (§1) FIGS. 7(A-B) show the effect of anti-HER2 therapy on HER2-positive BT474-Gluc breast cancer brain metastases established in Rag2^−/−; Il2rg^−/− mice. Trastuzumab at 5 mg/kg was administered twice weekly via intravenous tail vein injection, and treatment was initiated when tumors reached 10 mm^3 in volume. MRI was used to monitor brain tumor size and response to treatment.
(§2) IV injection of BT474-Gluc cells reproduced the metastatic pattern observed in breast cancer patients, with multiple metastatic sites (Table 2). Importantly, brain tumors developed in a majority of the mice (>90%) before they succumbed to visceral tumor burden, with a distribution similar to that observed in patients. The median time to establishment of brain metastatic tumors visible by MRI was 4.2 months (range 2.9-6.1 months). We tested the effects of a standard anti-HER2 therapy, trastuzumab, on the growth of BT474-Gluc tumors established by IV injection versus the commonly used intracranial (IC) method.

[2] = test system: HER2-positive BT474-Gluc breast cancer brain metastases; assay: Anti-HER2 therapy on BT474-Gluc brain metastases established by IV injection; format: in vivo, Rag2−/−; Il2rg−/− mice; conditions: IV-established tumors, 5 mg/kg twice weekly intravenous
Procedure: as §1, §2

[3] = start at 10 mm^3, listed as trastuzumab

trastuzumab
effect on tumor progression ([1]; start at 10 mm^3): significant delay in tumor progression
effect on tumor progression [1, 3]: delay in tumor progression
effect on tumor progression ([2]; start at 10 mm^3): did not
effect on tumor progression [2, 3]: failed to control tumor growth
